Reference: PubChem BioAssay AID1320 (NMMLSC, 2008)
This is a selection; strong and weak results do not stand in their true shares. The source made the active and inactive calls. The rule behind the calls is not given here.

The chains behind the UniProt entries cited, without tags or fusion partners. Where a name states a change or a piece, a line headed by the entry shows the natural chain unless it says otherwise.
UniProt Q16548: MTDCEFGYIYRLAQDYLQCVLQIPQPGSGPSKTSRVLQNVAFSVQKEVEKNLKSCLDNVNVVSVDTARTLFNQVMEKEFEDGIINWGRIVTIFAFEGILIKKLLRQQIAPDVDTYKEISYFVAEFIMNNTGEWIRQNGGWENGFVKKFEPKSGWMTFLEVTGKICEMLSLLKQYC

Biological target: Bcl-2-related protein A1 (Homo sapiens) (UniProt Q16548)
Experiment: inhibitors of Bim binding to Bfl-1, dose response, biochemical, multiplexed, bead-based flow cytometry (AID 1320); note: test concentration not given here
Settings: Bim peptide-Bfl-1 binding, fluorescence

## CCOP1(=S)c2c(C)nn(CCC#N)c2N=C(c2ccc(F)cc2)N1C (stereo unspecified)
  percent span (inhibition): inactive
